{
  "source": "paper PMC10741027",
  "about": "“Risk Assessment of Psychotropic Drugs on Mitochondrial Function Using In Vitro Assays” (Biomedicines, 2023)",
  "system": "rat liver mitochondria (CII-linked respiration)",
  "test": "High-resolution respirometry, MMP and ROS in isolated rat liver mitochondria (Oroboros O2k)",
  "assay_type": "biochemical",
  "data": [
    {"smiles": "Cc1cc2c(s1)Nc1ccccc1N=C2N1CCN(C)CC1", "note": "[Olanzapine]", "values": [
      {"measurement": "Mode of action on respiration in isolated RLM (in words)", "result": "did not affect respiration"}
    ]}
  ]
}
